Measurements from patent publication US12576087B2, “Aryloxypiperidine pyrazole compounds as indoleamine 2,3-dioxygenase inhibitors” (Merck Sharp & Dohme LLC, priority 2018, dated 2026).
pEC50: −log10 of the molar value.

Amino acid sequences for entries named in this document (tags omitted).
UniProt P14902, whole entry: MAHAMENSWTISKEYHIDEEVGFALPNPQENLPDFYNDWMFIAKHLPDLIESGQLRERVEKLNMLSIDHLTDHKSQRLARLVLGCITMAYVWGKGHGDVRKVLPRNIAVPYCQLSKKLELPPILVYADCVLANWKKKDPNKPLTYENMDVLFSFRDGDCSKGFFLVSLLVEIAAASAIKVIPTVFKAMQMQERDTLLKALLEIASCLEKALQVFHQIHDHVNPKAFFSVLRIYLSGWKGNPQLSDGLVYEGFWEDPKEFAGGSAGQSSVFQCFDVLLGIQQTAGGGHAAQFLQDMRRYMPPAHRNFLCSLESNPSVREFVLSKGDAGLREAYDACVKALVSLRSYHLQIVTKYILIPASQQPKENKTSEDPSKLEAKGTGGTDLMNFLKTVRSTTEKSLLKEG

Target: IDO1 (Homo sapiens, UniProt P14902)
Assay: IDO1 Cellular Assay in HeLa Cells Stimulated with IFNγ
Format: cell-based
Details: HeLa cells stimulated with IFNγ 100 ng/mL, about 48 hours

pEC50	Structure (SMILES)
8.95	Cc1ccccc1OC1CCN(C(=O)Cn2nc(C(=O)N3CC[C@H](O)C[C@@H]3C)c3c2CCCC3)CC1 [Example 17, 2-(3-((2S,4S)-4-hydroxy-2-methylpiperidine-1-carbonyl)-4,5,6,7-tetrahydro-1H-indazol-1-yl)-1-(4-(o-tolyloxy)piperidin-1-yl)ethanone]
8.92	Cc1ccccc1OC1CCN(C(=O)Cn2nc(C(=O)N3CCC(O)CC3)c3c2CCCC3)CC1 [Example 18, 2-(3-(4-hydroxypiperidine-1-carbonyl)-4,5,6,7-tetrahydro-1H-indazol-1-yl)-1-(4-(o-tolyloxy)piperidin-1-yl)ethanone]
8.76	Cc1ccccc1OC1CCN(C(=O)Cn2nc(C(=O)N3CCC(OCCO)CC3)c3c2CCCC3)CC1 [Example 20, 2-(3-(4-(2-hydroxyethoxy)piperidine-1-carbonyl)-4,5,6,7-tetrahydro-1H-indazol-1-yl)-1-(4-(o-tolyloxy)piperidin-1-yl)ethanone]
8.74	Cc1ccccc1OC1CCN(C(=O)Cn2nc(C(=O)N3CCC(O)(C(F)F)CC3)c3c2CCCC3)CC1 [Example 22, 2-(3-(4-(difluoromethyl)-4-hydroxypiperidine-1-carbonyl)-4,5,6,7-tetrahydro-1H-indazol-1-yl)-1-(4-(o-tolyloxy)piperidin-1-yl)ethanone]
8.74	Cc1ccccc1OC1CCN(C(=O)Cn2nc(C(=O)N3CC[C@H](O)[C@@H](F)C3)c3c2CCCC3)CC1 [Example 23, 2-(3-((3S,4S)-3-fluoro-4-hydroxypiperidine-1-carbonyl)-4,5,6,7-tetrahydro-1H-indazol-1-yl)-1-(4-(o-tolyloxy)piperidin-1-yl)ethanone]
8.72	CC(=O)NC1CCN(C(=O)c2nn(CC(=O)N3CCC(Oc4ccccc4C)CC3)c3c2CCCC3)CC1 [Example 24, N-(1-(1-(2-oxo-2-(4-(o-tolyloxy)piperidin-1-yl)ethyl)-4,5,6,7-tetrahydro-1H-indazole-3-carbonyl)piperidin-4-yl)acetamide]
8.68	Cc1ccccc1OC1CCN(C(=O)Cn2nc(C(=O)N3CCC(O)CC3(C)C)c3c2CCCC3)CC1 (centres unmarked) [Example 25, 2-(3-(4-hydroxy-2,2-dimethylpiperidine-1-carbonyl)-4,5,6,7-tetrahydro-1H-indazol-1-yl)-1-(4-(o-tolyloxy)piperidin-1-yl)ethanone]

Continued, molecule first:

Structure (SMILES)	pEC50
O=C(Cn1nc(C(=O)N2CC[C@@H](O)[C@@H](F)C2)c2c1CCCC2)N1CCC(Oc2ccccc2Cl)CC1 [Example 9, 1-(4-(2-chlorophenoxy)piperidin-1-yl)-2-(3-((3S,4R)-3-fluoro-4-hydroxypiperidine-1-carbonyl)-4,5,6,7-tetrahydro-1H-indazol-1-yl)ethanone]	8.09
O=C(CO)N1CCN(C(=O)c2nn(CC(=O)N3CCC(Oc4ccccc4Cl)CC3)c3c2CCCC3)CC1 [Example 10, 1-(4-(2-chlorophenoxy)piperidin-1-yl)-2-(3-(4-(2-hydroxyacetyl)piperazine-1-carbonyl)-4,5,6,7-tetrahydro-1H-indazol-1-yl)ethan-1-one]	8.69
CCOC(=O)c1nn(CC(=O)N2CC[C@@H](Oc3ccccc3Cl)C[C@H]2C)c2c1CCCC2 [Example 11, ethyl 1-(2-((2R,4R)-4-(2-chlorophenoxy)-2-methylpiperidin-1-yl)-2-oxoethyl)-4,5,6,7-tetrahydro-1H-indazole-3-carboxylate]	7.94
C[C@@H]1C[C@H](Oc2ncccc2C(F)(F)F)CCN1C(=O)Cn1nc(C(=O)N2CCN(C(=O)CO)CC2)c2c1C[C@H]1C[C@@H]21 [Example 12, 2-hydroxy-1-(4-((3bR,4aR)-1-(2-((2R,4R)-2-methyl-4-((3-(trifluoromethyl)pyridin-2-yl)oxy)piperidin-1-yl)-2-oxoethyl)-3b,4,4a,5-tetrahydro-1H-cyclopropa[3,4]cyclopenta[1,2-c]pyrazole-3-carbonyl)piperazin-1-yl)ethanone]	7.73
CCOC(=O)c1nn(CC(=O)N2CC[C@@H](Oc3ncccc3C(F)(F)F)C[C@H]2C)c2c1[C@@H]1C[C@@H]1C2 [Example 13, (3bR,4aR)-ethyl 1-(2-((2R,4R)-2-methyl-4-((3-(trifluoromethyl)pyridin-2-yl)oxy)piperidin-1-yl)-2-oxoethyl)-3b,4,4a,5-tetrahydro-1H-cyclopropa[3,4]cyclopenta[1,2-c]pyrazole-3-carboxylate]	7.68
CCOC(=O)c1nn(CC(=O)N2CCC(Oc3ccccc3Cl)CC2)c2c1CCCC2 [Example 14, ethyl 1-(2-(4-(2-chlorophenoxy)piperidin-1-yl)-2-oxoethyl)-4,5,6,7-tetrahydro-1H-indazole-3-carboxylate]	7.67
O=C(Cn1nc(C(=O)N2CCC(OCCO)CC2)c2c1CCCC2)N1CCC(Oc2ccccc2Cl)CC1 [Example 15, 1-(4-(2-chlorophenoxy)piperidin-1-yl)-2-(3-(4-(2-hydroxyethoxy)piperidine-1-carbonyl)-4,5,6,7-tetrahydro-1H-indazol-1-yl)ethanone]	9.29
Cc1ccccc1OC1CCN(C(=O)Cn2nc(C(=O)N3CC[C@H](O)[C@H](F)C3)c3c2C[C@H]2C[C@@H]32)CC1 [Example 16, 2-((3bR,4aR)-3-((3R,4S)-3-fluoro-4-hydroxypiperidine-1-carbonyl)-3b,4,4a,5-tetrahydro-1H-cyclopropa[3,4]cyclopenta[1,2-c]pyrazol-1-yl)-1-(4-(o-tolyloxy)piperidin-1-yl)ethanone]	8.97
Cc1ccccc1OC1CCN(C(=O)Cn2nc(C(=O)N3CCC(OCCO)CC3)c3c2CCC3)CC1 [Example 19, 2-(3-(4-(2-hydroxyethoxy)piperidine-1-carbonyl)-5,6-dihydrocyclopenta[c]pyrazol-1(4H)-yl)-1-(4-(o-tolyloxy)piperidin-1-yl)ethanone]	8.79
Cc1ccccc1OC1CCN(C(=O)Cn2nc(C(=O)N3CCC(O)CC3)c3c2C[C@H]2C[C@@H]32)CC1 [Example 21, 2-((3bR,4aR)-3-(4-hydroxypiperidine-1-carbonyl)-3b,4,4a,5-tetrahydro-1H-cyclopropa[3,4]cyclopenta[1,2-c]pyrazol-1-yl)-1-(4-(o-tolyloxy)piperidin-1-yl)ethanone]	8.74
Cc1ccccc1OC1CCN(C(=O)Cn2nc(C(=O)N3CCC(O)(CF)CC3)c3c2CCCC3)CC1 [Example 26, 2-(3-(4-(fluoromethyl)-4-hydroxypiperidine-1-carbonyl)-4,5,6,7-tetrahydro-1H-indazol-1-yl)-1-(4-(o-tolyloxy)piperidin-1-yl)ethanone]	8.65
Cc1ccccc1OC1CCN(C(=O)Cn2nc(C(=O)N3CC[C@@H](O)[C@@H](F)C3)c3c2C[C@H]2C[C@@H]32)CC1 [Example 27, 2-((3bR,4aR)-3-((3S,4R)-3-fluoro-4-hydroxypiperidine-1-carbonyl)-3b,4,4a,5-tetrahydro-1H-cyclopropa[3,4]cyclopenta[1,2-c]pyrazol-1-yl)-1-(4-(o-tolyloxy)piperidin-1-yl)ethanone]	8.59
Cc1ccccc1OC1CCN(C(=O)Cn2nc(C(=O)N3CCC(F)(CO)CC3)c3c2CCCC3)CC1 [Example 28, 2-(3-(4-fluoro-4-(hydroxymethyl)piperidine-1-carbonyl)-4,5,6,7-tetrahydro-1H-indazol-1-yl)-1-(4-(o-tolyloxy)piperidin-1-yl)ethanone]	8.59
